Data set [1] addresses ERK2 D319N (Rattus norvegicus (Rat), UniProt P63086, D319N). The data set is described as follows: Fluorescence quenching (FQ) binding affinity. As to conditions: read-out: KD D319N (Site1).
The target in data set [2] is ERK2 T157A (Rattus norvegicus (Rat), UniProt P63086, T157A). Briefly: Fluorescence quenching (FQ) binding affinity. As to conditions: read-out: KD T157A (Site1).
Data set [3] addresses ERK2 T157A/D319N (Rattus norvegicus (Rat), UniProt P63086, D319N/T157A). The data set is described as follows: Fluorescence quenching (FQ) binding affinity. As to conditions: read-out: KD T157A/D319N (Site1).
In data set [4] the target is ERK2 wild type (WT) (Rattus norvegicus (Rat), UniProt P63086). Briefly: Fluorescence quenching (FQ) binding affinity. As to conditions: read-out: KD ERK2 WT, 1 nM to 20 μM test compound.
Data set [5] deals with A375 tumor. The data set is described as follows: A375 melanoma xenograft in nu/nu mice, combination with temozolomide (TMZ). The class given is in vivo. The text has this: FIG. 13. 76.3 enhances TMZ inhibition of A375 melanoma growth in mouse xenographs.
(§1) However, in combination with temozolomide (TMZ), an anti-cancer drug being tested in combination with targeted agents to treat melanoma, 76.3 enhanced TMZ reduction of A375 tumor growth in immune-compromised nu/nu mice (FIG. 13A). Moreover, 76.3 and TMZ also appeared to delay tumor growth in mice harboring A375 tumors indicative of prolonged survival (FIG. 13B).

Amino acid sequences for entries named in this document (tags omitted). A change or cut given only in a name is not applied to a line headed by its entry.
UniProt P63086, whole entry: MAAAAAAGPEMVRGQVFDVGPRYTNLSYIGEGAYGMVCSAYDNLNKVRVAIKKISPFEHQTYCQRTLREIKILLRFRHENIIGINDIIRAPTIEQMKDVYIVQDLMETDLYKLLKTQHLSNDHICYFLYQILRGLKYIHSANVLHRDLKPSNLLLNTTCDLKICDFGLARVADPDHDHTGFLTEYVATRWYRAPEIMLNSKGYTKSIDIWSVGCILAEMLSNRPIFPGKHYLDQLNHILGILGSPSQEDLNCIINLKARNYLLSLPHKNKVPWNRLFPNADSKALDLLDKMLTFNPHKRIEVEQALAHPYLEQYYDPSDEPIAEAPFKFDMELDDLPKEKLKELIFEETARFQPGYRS
UniProt P63086, whole entry D319N: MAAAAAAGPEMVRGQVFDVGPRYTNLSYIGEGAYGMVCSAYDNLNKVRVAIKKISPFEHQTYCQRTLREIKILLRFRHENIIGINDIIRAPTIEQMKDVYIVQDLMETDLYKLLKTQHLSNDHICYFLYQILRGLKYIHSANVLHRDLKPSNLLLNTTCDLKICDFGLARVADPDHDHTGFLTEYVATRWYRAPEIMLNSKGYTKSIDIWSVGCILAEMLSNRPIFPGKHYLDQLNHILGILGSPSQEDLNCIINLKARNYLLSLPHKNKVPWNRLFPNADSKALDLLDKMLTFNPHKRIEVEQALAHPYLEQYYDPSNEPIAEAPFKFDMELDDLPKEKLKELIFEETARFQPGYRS
UniProt P63086, whole entry T157A: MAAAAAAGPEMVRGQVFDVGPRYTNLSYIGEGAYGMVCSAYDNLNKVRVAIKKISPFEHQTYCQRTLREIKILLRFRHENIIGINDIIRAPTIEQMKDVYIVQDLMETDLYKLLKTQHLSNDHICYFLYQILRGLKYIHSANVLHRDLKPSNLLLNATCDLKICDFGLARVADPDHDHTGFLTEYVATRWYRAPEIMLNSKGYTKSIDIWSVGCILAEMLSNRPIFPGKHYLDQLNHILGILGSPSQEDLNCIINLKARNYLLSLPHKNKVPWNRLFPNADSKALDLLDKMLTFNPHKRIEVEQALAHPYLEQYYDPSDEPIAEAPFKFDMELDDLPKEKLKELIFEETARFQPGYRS
UniProt P63086, whole entry T157A/D319N: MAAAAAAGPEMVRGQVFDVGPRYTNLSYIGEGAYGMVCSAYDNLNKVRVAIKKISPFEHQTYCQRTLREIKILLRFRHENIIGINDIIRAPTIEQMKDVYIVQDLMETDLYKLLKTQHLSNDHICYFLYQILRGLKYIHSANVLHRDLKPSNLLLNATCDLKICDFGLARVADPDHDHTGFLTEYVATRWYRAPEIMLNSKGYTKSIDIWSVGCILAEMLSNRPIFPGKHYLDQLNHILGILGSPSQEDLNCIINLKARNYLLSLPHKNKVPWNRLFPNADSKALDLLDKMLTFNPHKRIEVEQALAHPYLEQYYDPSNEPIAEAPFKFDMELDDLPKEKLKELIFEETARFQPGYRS

The test system of data set [6] is A375 melanoma cells. Briefly: Proliferation of A375 melanoma cells (Example 3).
From the text: We examined the effects of these compounds on proliferation of A375 melanoma cells with BRaf mutations that require ERK activation for survival.
as §1

Structures are written as SMILES.

The values below come from US9115122B2, “Non-ATP dependent inhibitors of extracellular signal-regulated kinase (ERK)” (UNIVERSITY OF MARYLAND, BALTIMORE, priority 2012, dated 2015).

For `NCCN1C(=O)S/C(=C\c2ccc3c(c2)OCO3)C1=O`, the Kd in data set [1] is 13.4 µM; in data set [2], 8.1 µM; in data set [3] it was greater than 20 µM; in data set [4] it was 1.5 µM. The “overt toxicity or weight loss in treated mice” value in data set [5] (compared to controls) is listed as “no overt toxicity or weight loss”. Besides, in data set [5] (immune-compromised nu/nu mice), the “A375 tumor growth in combination with temozolomide (TMZ)” value is “enhanced TMZ reduction of A375 tumor growth”. Besides, the “effect on A375 cell proliferation” value in data set [6] is listed as “little effect”.

With `NCCN1C(=O)S/C(=C\C=C\c2ccccc2)C1=O`, the Kd in data set [1] is 1.9 µM; in data set [2], 2.4 µM; in data set [3] it was 4 µM; in data set [4], 3.3 µM.

In the case of `COc1ccc(/C=C2\SC(=O)N(CCN)C2=O)cc1OC`, the Kd in data set [1] was 18 µM; in data set [2] it was 3 µM; in data set [3], greater than 20 µM; in data set [4], 2.4 µM.
